Molecular target: Pim-2 (Homo sapiens (Human), UniProt Q9P1W9)
Test: Pim-2 kinase assay
Conditions: read-out: Pim2 IC50; 1 mM ATP, fluorescein-labeled CREBtide peptide substrate
Description: Pim-2 kinase assay-20 μL reactions were run in white 384 well polystyrene plates dotted with 0.8 μL compound/DMSO in the assay buffer (50 mM Tris, pH 7.5, 0.01% Tween-20, 5 mM MgCl2, 0.01% BSA, 5 mM DTT), containing 0.05 μm Fluorescein-labeled CREBtide peptide substrate (Invitrogen PV3508), 1 mM ATP, and 1 nM enzyme (Invitrogen PV3649) for 2 h at 25° C. Reactions were stopped by addition of 10 μL TR-FRET Dilution Buffer (Invitrogen PV3574) with 30 mM EDTA and 1.5 nM LanthaScreen Tb-CREB pSer133 antibody (Invitrogen PV3566). After 30 min. incubation at room temperature, plates were read on a PHERAstar FS plate reader (BMG Labtech).

The chains behind the UniProt entries cited, without tags or fusion partners.
UniProt Q9P1W9, whole entry: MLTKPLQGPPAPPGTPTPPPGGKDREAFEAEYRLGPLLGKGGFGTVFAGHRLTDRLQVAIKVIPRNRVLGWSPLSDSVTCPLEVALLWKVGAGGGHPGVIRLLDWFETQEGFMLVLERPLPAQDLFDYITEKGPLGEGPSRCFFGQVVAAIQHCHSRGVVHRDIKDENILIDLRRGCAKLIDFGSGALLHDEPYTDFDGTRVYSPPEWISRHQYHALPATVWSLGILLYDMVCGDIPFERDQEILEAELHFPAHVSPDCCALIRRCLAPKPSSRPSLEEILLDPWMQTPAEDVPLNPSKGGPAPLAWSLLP

Nc1oc2cccnc2c1C(=O)Nc1cnccc1N1C[C@@H](N)[C@H](O)[C@@H](C(F)(F)F)C1 (single isomer, unassigned) [Example 87 (Diastereoisomer 2)]
IC50: 100 to 1000 nM
